Values joined by “and” are separate entries in the source; they are usually repeats but may differ in a detail not shown here. Equal values may be shown once.
Assays:
blood loss [1] = test: Rat tail transection blood loss model, prophylactic r-Antidote after enoxaparin; assay type: in vivo; details: bolus only and bolus plus infusion regimens, equally effective
Procedure: Then, tail transection was initiated another 5 min later, and cumulative blood loss was measure for up to 45 minutes.

Chains of the proteins cited; added tags and fusions are not shown. Residues count along the entry.
UniProt P00742, 41-179 limits assumed: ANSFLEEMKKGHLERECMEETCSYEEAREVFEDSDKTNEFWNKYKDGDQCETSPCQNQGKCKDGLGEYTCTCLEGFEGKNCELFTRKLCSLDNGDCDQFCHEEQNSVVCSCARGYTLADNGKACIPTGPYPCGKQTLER
UniProt P00742, 235-488 limits assumed: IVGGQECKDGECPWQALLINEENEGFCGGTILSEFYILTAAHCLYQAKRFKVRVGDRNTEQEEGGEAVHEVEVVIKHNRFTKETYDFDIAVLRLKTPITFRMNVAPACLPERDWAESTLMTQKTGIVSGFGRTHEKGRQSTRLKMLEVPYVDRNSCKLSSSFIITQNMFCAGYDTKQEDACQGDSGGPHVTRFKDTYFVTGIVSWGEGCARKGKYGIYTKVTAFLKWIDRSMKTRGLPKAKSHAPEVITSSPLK
UniProt P01008, 33-464: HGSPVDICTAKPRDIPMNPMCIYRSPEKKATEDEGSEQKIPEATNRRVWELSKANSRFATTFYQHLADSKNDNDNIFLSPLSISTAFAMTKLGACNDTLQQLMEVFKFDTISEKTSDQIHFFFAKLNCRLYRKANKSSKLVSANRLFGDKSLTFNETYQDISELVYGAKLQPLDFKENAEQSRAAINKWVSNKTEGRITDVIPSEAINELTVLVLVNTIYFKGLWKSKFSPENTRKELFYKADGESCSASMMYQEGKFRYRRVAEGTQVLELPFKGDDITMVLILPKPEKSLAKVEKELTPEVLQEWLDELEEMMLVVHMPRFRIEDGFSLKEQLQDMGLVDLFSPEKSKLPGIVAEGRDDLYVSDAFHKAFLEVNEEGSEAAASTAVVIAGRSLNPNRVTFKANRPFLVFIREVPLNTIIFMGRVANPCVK

blood loss [2] = test: Rat tail transection treatment model, r-Antidote given after bleeding initiated; assay type: in vivo; details: for Reduction of blood loss: vs. Enox+vehicle
Procedure: In a pilot study using this antidote treatment model, anesthetized rats were intravenously (IV) administered either vehicle or enoxaparin (4.5 mg/kg, IV bolus) followed by tail transection at 5 min post-dosing.
(§1) Anesthetized rats were administered enoxaparin (4.5 mg/kg) or vehicle by I.V. bolus injection followed by tail transection (2 mm from tip) 5 minutes later. […] The tip of the tail was placed in physiologic saline at 37° C. and blood collected for an additional 45 minutes after tail transection. Blood was lysed by diluting in water and freezing at −80° C. overnight. […] Anti-fXa activity of enoxaparin was measured using a modified chromogenic LMW heparin kit. Tissue factor (TF)-initiated thrombin generation was carried out in human plasma using a fluorogenic thrombin substrate by measurement of change of relative fluorescence unit (RFU) for 10 min following initiation of the reaction.

blood loss [3] = test: Rabbit liver laceration blood loss model; assay type: in vivo; details: for effect on blood loss when given alone: in the absence of rivaroxaban
Procedure: Rivaroxaban (1 mg/kg) or vehicle was dosed by IV bolus over 2 minutes via marginal ear vein catheter. […] Riva=Rivaroxaban; g=gram
(§2) Anesthetized rabbits were administered vehicle or 1 mg/kg rivaroxaban via IV bolus injection. […] Blood loss due to rivaroxaban anticoagulation represented approximately 10% of the animal's total blood volume. Total rivaroxaban concentration in plasma was measured by LC-MS/MS. Free fraction of rivaroxaban (non-protein, non-r-Antidote bound) was first separated using ultra-filtration followed by LC-MS/MS quantitation. Anti-fXa activity was measured using a modified chromogenic LMW heparin kit. PT and aPTT was measured using commercial reagents (HemosIL).
Anesthetized rabbits were administered vehicle or 1 mg/kg rivaroxaban via IV bolus injection. […] Blood loss due to rivaroxaban anticoagulation represented approximately 10% of the animal's total blood volume (FIG. 13). As in the rodent model, total and free rivaroxaban concentration in plasma, anti-fXa activity and PT and activated partial thromboplastin times (aPTT) was measured.
(§3) Rivaroxaban (1 mg/kg) or vehicle was dosed to anesthetized rabbits by IV bolus over 2 minutes via marginal ear vein catheter. […] Serial blood samples were collected at 0, 30, 35, and 50 minutes post rivaroxaban. Measurements included reduction in blood loss, decrease in unbound rivaroxaban in the plasma using equilibrium dialysis method, anti-fXa activity, PT and aPTT. The method for measuring PT is described previously in Example 6.

prothrombin time (PT) = test: Prothrombin time in rabbit liver laceration model; assay type: in vivo
Procedure: as §2
For human in vitro and rat ex vivo experiments, PT was measured using MLA Electra 800 automatic coagulation timer. Innovin was automatically dispensed to plasma samples (100 μL) per manufacturer's instructions. […] For rabbit experiments, PT and aPTT were measured using a Beckman Coulter ACL Elite instrument with HemosIL reagents (available commercially from Instrumentation Laboratories). Whole blood INR (International Normalized Ratio) for animal samples were measured by Hemchron Jr. Signature Cartridges (International Technidyne Corporation) according to manufacturer's instructions.
Rivaroxaban (1 mg/kg) or vehicle was dosed to anesthetized rabbits by IV bolus over 2 minutes via marginal ear vein catheter. […] Serial blood samples were collected at 0, 30, 35, and 50 minutes post rivaroxaban. […]

[4] = Total and free rivaroxaban concentration in rabbit plasma; assay type: in vivo; details: r-Antidote-treated group
Procedure: as §2, §3

[5] = molecular target: T1, purified human plasma fXa (Homo sapiens, UniProt P00742); test: fXa enzyme assay: reversal of direct fXa inhibitors by r-Antidote (Dynafit); assay type: biochemical
T1 construct: FXa contains a light chain and a heavy chain; purchased Haematologic Technologies; host or cells: human plasma (plasma-derived)
Procedure: (§4) The lines represent the best fittings; Kd and Ki values are listed. mOD min^−1=miliOptical Density per minute. […] Grey bar: Control plasma alone (PPP), Filled bar: rivaroxaban or rivaroxaban+r-antidote, Open bar: Control plasma+r-antidote. […] Thrombin generation was initiated by addition of Ca^2+ and tissue factor (TF). Cleavage of thrombin specific substrate Z-GGR-AMC (RFU=Relative Fluorescence Units) was measured at 37° C. for 10 min.
After incubation at room temperature (RT) for 30 min, 100 μM Spectrozyme-fXa (available commercially from American Diagnostica) was added to the mixture and initial rate of substrate cleavage was monitored continuously for 5 min at 405 nm in a 96-well plate reader. […] Betrixaban was synthesized according to methods known in the art. Rivaroxaban and apixaban can be purchased commercially from, for example, J Star Research and American Custom Chemicals Corporation.

prothrombinase complex = molecular target: T2, prothrombinase complex (Homo sapiens, UniProt P00742); test: Tissue factor-initiated thrombin generation assay in human plasma; assay type: biochemical
T2 construct: from tissue; host or cells: pooled human plasma
Procedure: as §4, §1
Innovin was used as the source of TF to initiate the generation of thrombin. The reaction mixture (final volume=100 μL) contained 15 mM Ca^2, 100 μM Z-GGR-AMC, and 0.1 nM TF. […] Tris-buffered saline (20 mM Tris, 150 mM NaCl, pH=7.4) was used to adjust the final volume of the reaction mixture.

[6] = molecular target: T3, ATIII-fondaparinux complex (Homo sapiens, UniProt P01008); test: Kinetics of fXa inhibition by ATIII-fondaparinux complex with r-Antidote; assay type: biochemical
T3 construct: purchased Haematologic Technologies
Procedure: The solid lines represent the non-linear fitting of the experimental data with a single exponential decay function.
To further investigate the specific interaction between r-Antidote and ATIII, an evaluation was carried out in a reconstituted system with purified human proteins (fXa, ATIII, fondaparinux). […] The solid lines represent the non-linear fitting of the experimental data with a single exponential decay function. […] The program Dynafit was used to perform kinetic analyses of curves generated using a series of ATIII-fondaparinux and PRT064445 concentrations. This analysis yielded a dissociation constant of 53 nM for PRT064445/ATIII-fondaparinux complex.
Kinetics of fXa inhibition by ATIII and the ATIII-fondaparinux complex were carried out under pseudo-first order reaction conditions where the ATIII concentration exceeded the fXa concentration in the fXa+ATIII reaction. In reactions containing fondaparinux, a limiting amount of fondaparinux was mixed with saturating ATIII concentrations. […] Following initiation of the reaction, 10 μL of reaction mixture were removed at various time points and assayed for residual fXa activity by measuring Spectrozyme-fXa cleavage. fXa activity was normalized by comparing it to the activity at t=0 before addition of either fondaparinux or ATIII (E/Eo).

B1: r-Antidote: processed two-chain polypeptide of SEQ ID NO: 3; modified, catalytically inactive human recombinant fXa lacking the Gla domain (protein)
chain: ANSFLFWNKYKDGDQCETSPCQNQGKCKDGLGEYTCTCLEGFEGKNCELFTRKLCSLDNGDCDQFCHEEQNSVVCSCARGYTLADNGKACIPTGPYPCGKQTLERIVGGQECKDGECPWQALLINEENEGFCGGTILSEFYILTAAHCLYQAKRFKVRVGDRNTEQEEGGEAVHEVEVVIKHNRFTKETYDFDIAVLRLKTPITFRMNVAPACLPERDWAESTLMTQKTGIVSGFGRTHEKGRQSTRLKMLEVPYVDRNSCKLSSSFIITQNMFCAGYDTKQEDACQGDAGGPHVTRFKDTYFVTGIVSWGEGCARKGKYGIYTKVTAFLKWIDRSMKTRGLPKAKSHAPEVITSSPLK
modifications: processed two-chain form
blood loss compared with vehicle (no enoxaparin) (blood loss [1]): no blood loss greater than vehicle | cumulative blood loss relative to enoxaparin only group (blood loss [2]; pilot study, enoxaparin 4.5 mg/kg, r-Antidote 4 mg/rat after 5 min of blood loss, end of experiment): less than 20% | time after bolus injection until bleeding significantly reduced or stopped for all rats (blood loss [2]; pilot study, r-Antidote 4 mg/rat after 5 min of blood loss): ≤ 5 min | Reduction of blood loss (blood loss [2]; r-Antidote 1 mg bolus 10 min after tail transection, enoxaparin 4.5 mg/kg): 60% | Reduction of blood loss (blood loss [2]; r-Antidote 2 mg bolus 10 min after tail transection, enoxaparin 4.5 mg/kg): 56% | Reduction of blood loss (blood loss [2]; r-Antidote 4 mg bolus 10 min after tail transection, enoxaparin 4.5 mg/kg): 62% | animals with complete cessation of bleeding (blood loss [2]; r-Antidote 1, 2 or 4 mg bolus): 70-85% | effect on blood loss when given alone (blood loss [3]): had no effect on blood loss | effect on blood loss when given alone (blood loss [3]; listed as PRT): did not affect blood loss | Reduction of blood loss (blood loss [3]; r-Antidote 75 mg/rabbit in rivaroxaban (1 mg/kg) treated rabbits, Riva+PRT vs. Riva alone): > 85% and 76% | reduction of PT prolongation (prothrombin time (PT); 35 minute time point, rivaroxaban rabbits (Table 7)): 81% | decrease (reversal) of PT (prothrombin time (PT); rivaroxaban rabbits, r-Antidote 75 mg/rabbit, rfVIIa 150 μg/kg): 74% | reduction of unbound fraction of rivaroxaban ([4]; 35 minute): 94% | reduction of unbound fraction of rivaroxaban ([4]; 50 minute): 70% | affinities of r-Antidote for the direct fXa inhibitors (Kd) ([5]; betrixaban, rivaroxaban and apixaban): sub-nanomolar | change in fXa activity in the absence of inhibitor ([5]; r-Antidote 0-250 nM): did not produce any change in fXa activity | effect on enoxaparin mediated inhibition of thrombin generation (prothrombinase complex; human plasma, in vitro): reversed the enoxaparin mediated inhibition of thrombin generation | formation of thrombin (RFU) (prothrombinase complex; r-Antidote up to 3.3 μM): remained essentially unchanged | Kd ([6]; Dynafit kinetic analysis, purified human proteins, read-out: dissociation constant for PRT064445/ATIII-fondaparinux complex): 53 nM | effect on inhibition of fXa by ATIII ([6]; in the absence of fondaparinux (data not shown)): minimal effect

Source: patent US20200129597A1, “MODULATION OF FACTOR Xa INHIBITOR-MEDIATED BLOOD LOSS BY PARTIAL AND TRANSIENT ADMINISTRATION OF ANTIDOTE” (Portola Pharmaceuticals, Inc., priority 2012, published 2020)
